# Data published in patent publication US7767822B2, “Water-soluble tetrazolium salts” (Bayer Healthcare LLC, priority 2005, dated 2010).
# Read-outs that look alike come from different tables or passages of the source.
# Assay: Solubility of tetrazolium salts in 0.2M phosphate buffer
# Assay type: physicochemical
Molecule,"Solubilility (0.2M phosphate buffer, pH ~7.5, room temperature)",Solubilility
"5-Benzo[1,3 dioxol-5-yl]-3-[2-(3-trimethylammonium) propoxy-phenyl]-2-(5-chloro-4-difluoromethyl-thiazol-2-yl)-2H-tetrazolium bromo nitrite salt [Example 1]",33 mM,–
CCOc1ccc2nc(-n3nc(-c4ccc(OCCC[N+](C)(C)C)c(OC)c4)n[n+]3-c3ccccc3OCCC[N+](C)(C)C)sc2c1.O=N[O-].[Br-].[Br-] [Example 7],–,167 mM
